Target: APP-BP1 (amyloid precursor protein binding protein-1), endogenous in rat brain (rat (endogenous in adult Sprague Dawley rat brain)) (UniProt Q9Z1A5)
Assay: co-IP; rat brain membrane fraction proteins extracted in 20 mM Tris pH 8, 1 mM MgCl2, NaCl, 2% CHAPS; BP339 (anti-APP-BP1) prebound to protein G beads; blot with anti-PS1 (AB5308), anti-PS1-NTF or anti-nicastrin; controls beads alone or BP339 pre-immune antibody

## Presenilin-1 (PS1), endogenous in rat brain, as precipitated or detected by the anti-PS1 loop antibody AB5308 (from UniProt P97887 1-468) (natural protein)
  percent of PS1 associated with APP-BP1: 1%

Source: publication PMC1802080
